Laboratory results from patent US20120214775A1, “Pharmaceutical Salts of 3-O-(3',3'-Dimethylsuccinyl) Betulinic Acid” (priority 2004, published 2012).

Assay: Qualitative solubility of salt forms in solvent systems (appearance at attempted concentration)
Assay type: physicochemical

| Appearance (Hydroxypropyl-β-cyclodextrin 10% (in water), attempted 15.1 mg/mL) | Appearance (Hydroxypropyl-β-cyclodextrin 10% (in water), attempted 27.7 mg/mL) | Appearance (Hydroxypropyl-β-cyclodextrin 10% (in water), attempted 27.7 mg/mL, listed as DSB—(Na)2) | Appearance (Hydroxypropyl-β-cyclodextrin 20% (in water), attempted 27.9 mg/mL) | Appearance (Hydroxypropyl-β-cyclodextrin 10% (in water), attempted 29.0 mg/mL) | Appearance (Water 84%, PEG 400 12%, Ethanol 4%, attempted 42.2 mg/mL) | Appearance (Water 100%, attempted 3.5 mg/mL) | Structure (SMILES) |
| --- | --- | --- | --- | --- | --- | --- | --- |
| Solution clear | cloudy | Solution cloudy | Solution clear |  |  |  | C=C(C)[C@@H]1CC[C@]2(C(=O)[O-])CC[C@]3(C)[C@H](CC[C@@H]4[C@@]5(C)CC[C@H](OC(=O)CC(C)(C)C(=O)[O-])C(C)(C)[C@@H]5CC[C@]43C)[C@@H]12.[Na+].[Na+] [DSB-(Na)2, di-sodium salt of 3-O-(3′,3′-dimethylsuccinyl)betulinic acid] |
|  |  |  |  | Solution clear | Solution cloudy | Solution cloudy | C=C(C)[C@@H]1CC[C@]2(C(=O)[O-])CC[C@]3(C)[C@H](CC[C@@H]4[C@@]5(C)CC[C@H](OC(=O)CC(C)(C)C(=O)[O-])C(C)(C)[C@@H]5CC[C@]43C)[C@@H]12.[K+].[K+] [DSB-K2, di-potassium salt of 3-O-(3′,3′-dimethylsuccinyl) betulinic acid] |
